Laboratory results taken from patent publication US20200317813A1, “TREATMENT AND DIAGNOSIS OF NON-PROLIFERATIVE DIABETIC RETINOPATHY” (Johann Wolfgang Goethe-Universitat Frankfurt am Main, priority 2016, published 2020).

Tested on: Ins2Akita mice
Details: chronic treatment from 6 weeks to 12 months of age

O=C(NC12CC3CC(CC(C3)C1)C2)N[C@H]1CC[C@H](Oc2ccc(C(=O)O)cc2)CC1 (relative stereo) [t-AUCB, trans-4-[4-(3-adamantan-1-ylureido)cyclohexyloxy]-benzoic acid]
blood-retinal barrier integrity (FITC-BSA leakage): maintained | hallmarks of diabetic retinopathy (pericyte loss, pericyte migration, acellular capillaries): clearly attenuated
